Measured values reported in patent publication EP0282292B1, “Improved chelator for anaerobic sealants” (LOCTITE (IRELAND) Ltd., priority 1987, dated 1988).

diethylenetriaminepentaacetic acid pentasodium salt [DTPA Na₅]
chelator concentration, Sampled after 0.5hr. standing-supernatant liquid taken (1% Maleic Acid in PEGMA): 0 ppm
chelator concentration, Stirred 0.5hr. mixture sampled (1% Maleic Acid in PEGMA): 739 ppm
chelator concentration, supernatant after 4 days standing (1% Maleic Acid in PEGMA): 30 ppm
chelator concentration, supernatant after 5 days standing (1% Maleic Acid in PEGMA): 25 ppm
chelator concentration, Sampled after 0.5hr. standing-supernatant liquid taken (3% Saccharin in PEGMA): 14 ppm
chelator concentration, Stirred 0.5hr. mixture sampled (3% Saccharin in PEGMA): 650 ppm
chelator concentration, supernatant after 4 days standing (3% Saccharin in PEGMA): 15 ppm
chelator concentration, supernatant after 5 days standing (3% Saccharin in PEGMA): 25 ppm

Like-named read-outs stand apart in the source and are kept apart here.
